Data on three molecules can be found in PubChem BioAssay AID1024 (Sanford-Burnham Center for Chemical Genomics, 2008).

The chains behind the UniProt entries cited, without tags or fusion partners.
UniProt P11712, whole entry: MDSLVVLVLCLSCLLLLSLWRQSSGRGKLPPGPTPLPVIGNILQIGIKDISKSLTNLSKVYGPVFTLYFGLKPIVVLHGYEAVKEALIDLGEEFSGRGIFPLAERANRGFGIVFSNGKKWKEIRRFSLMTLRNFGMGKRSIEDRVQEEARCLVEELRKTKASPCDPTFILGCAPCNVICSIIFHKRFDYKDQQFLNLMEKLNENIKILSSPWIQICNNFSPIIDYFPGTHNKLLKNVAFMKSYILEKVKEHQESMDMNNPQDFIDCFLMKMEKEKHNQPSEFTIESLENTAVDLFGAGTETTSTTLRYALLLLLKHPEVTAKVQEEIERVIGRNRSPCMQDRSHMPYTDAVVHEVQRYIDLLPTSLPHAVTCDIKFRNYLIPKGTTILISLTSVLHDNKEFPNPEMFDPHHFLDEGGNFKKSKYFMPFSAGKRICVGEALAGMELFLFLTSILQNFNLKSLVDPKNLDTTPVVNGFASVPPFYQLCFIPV

This is a selection; strong and weak results do not stand in their true shares. Some tests of the compounds listed are not included; inactive here does not mean inactive elsewhere. Activity calls are given as the source filed them.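 The calls were made as follows: active = activation factor of 2 or more for CYP2C9 at a 5 µM dose; inactive = the rest.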

This test deals with Cytochrome P450 2C9 (Homo sapiens) (UniProt P11712). The test can be described thus: enhancers of cytochrome P450 2C9 turnover – biochemical, luminescence, primary screen (AID 1024).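 Also: 0 = sulfaphenazole-blocked wells and 1 = vehicle-only wells.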 The conditions noted are these: recombinant CYP2C9, luciferin-H conversion, at 5 µM, stronger effect = higher value, factor 1 = untreated enzyme, 0 = blocked.
Regarding `CC(C)N1C(=O)CC2(CCN(CCOC(=O)C(O)(c3ccccc3)c3ccccc3)CC2)C1=O`, the activation factor is inactive: 1.1.

Consider `O=C(OC1CN2CCC1CC2)C(CO)(c1ccccc1)c1ccccc1` (stereo not drawn), for which the activation factor was inactive: 0.9.

On to `CN(C)c1cccc(C(=O)NCC2(N(C)C)CCCCC2)c1`, for which the activation factor was inactive: 1.1.
